The values below are quoted from earlier work in paper PMC10863309 (Redox Biology, 2024).

The test system of the series is zebrafish larvae. The following applies: 100 μM; cited from earlier work.

On to ibogaine, for which the “malformations in zebrafish larvae” value is “yolk sac and/or pericardial edemas”.
